Reference: PMC10485003, “Antibiotic hyper-resistance in a class I aminoacyl-tRNA synthetase with altered active site signature motif” (Nature Communications, 2023)
Where “and” joins values, the source holds several entries; their conditions need not be identical. Equal values may be shown once.

Assays:
mut-GVHH TtIleRS2 = target: T1, mut-GVHH TtIleRS2 (Thermus thermophilus, UniProt P56690, G56H/H54G); format: biochemical; details: MUT/WT TtIleRS2; Repl1-Repl3; towards Ile
T1 construct: hexa-histidine tag (pET28b(+)) (N); made in house; host or cells: E. coli Rosetta2 (DE3)
T1 sequence (P56690 1-1043 H54G/G56H): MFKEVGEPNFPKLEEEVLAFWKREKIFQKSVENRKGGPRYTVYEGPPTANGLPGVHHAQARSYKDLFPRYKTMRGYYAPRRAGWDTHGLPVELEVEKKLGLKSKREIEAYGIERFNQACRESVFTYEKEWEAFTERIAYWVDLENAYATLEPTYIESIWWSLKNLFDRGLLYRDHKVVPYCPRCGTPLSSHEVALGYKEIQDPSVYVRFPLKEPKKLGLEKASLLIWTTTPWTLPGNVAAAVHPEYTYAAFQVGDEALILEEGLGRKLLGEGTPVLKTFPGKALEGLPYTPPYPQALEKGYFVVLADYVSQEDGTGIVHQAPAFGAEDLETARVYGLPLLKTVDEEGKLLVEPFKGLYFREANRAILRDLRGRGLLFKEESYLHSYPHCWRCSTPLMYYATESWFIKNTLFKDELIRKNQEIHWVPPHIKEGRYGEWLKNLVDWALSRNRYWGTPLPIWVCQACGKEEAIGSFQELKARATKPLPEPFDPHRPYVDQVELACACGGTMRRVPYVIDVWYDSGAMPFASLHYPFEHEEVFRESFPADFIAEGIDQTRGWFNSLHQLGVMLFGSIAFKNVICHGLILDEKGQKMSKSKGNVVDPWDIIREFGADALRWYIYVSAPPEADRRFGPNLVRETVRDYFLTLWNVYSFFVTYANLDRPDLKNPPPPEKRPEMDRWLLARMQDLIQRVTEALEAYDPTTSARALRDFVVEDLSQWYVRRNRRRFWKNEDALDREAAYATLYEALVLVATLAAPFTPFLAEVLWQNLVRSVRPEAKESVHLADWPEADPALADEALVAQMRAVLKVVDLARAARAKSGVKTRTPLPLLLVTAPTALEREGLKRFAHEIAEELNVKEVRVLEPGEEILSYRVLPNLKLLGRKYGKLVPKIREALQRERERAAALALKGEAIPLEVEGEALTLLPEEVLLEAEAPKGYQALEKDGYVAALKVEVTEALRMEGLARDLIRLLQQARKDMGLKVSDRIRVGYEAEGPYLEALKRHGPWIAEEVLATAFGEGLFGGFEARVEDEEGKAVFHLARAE
Procedure: (§1) L-Ile and ATP concentrations ranged from 1/10 KM to 10 KM values. When measuring the KI towards one of the substrates, the other was held in saturation (concentrations at least 10 KM). The aliquots of the reaction mixture (1–2.5 μl) were quenched in 2 volumes of 500 mM NaOAc pH = 4.5, 0.1% SDS, and formed ^32P-ATP was separated from the remaining ^32P-PPi by thin-layer chromatography on Polygram CEL 300 PEI UV254 TLC plates (Macherey-Nagel, cat: 801063) using 750 mM KH2PO4 pH=3.5, 4 M urea buffer. Visualization and quantification of the signals was performed using a Typhoon Phosphoimager 5 (General Electric) and accompanying ImageQuant™ TL software (SV: 10.2). The kinetic constants were determined using a global fit option of the competitive inhibition model of GraphPad Prism 6 software (SV: 6.01). All experiments were performed in triplicates. The kcat was determined by dividing the maximal velocity, VM, with the used enzyme concentration. […]
(§2) variable substrate (ATP or Ile) was varied in the range of 0.1 KM to 10 KM. The other substrate (Ile or ATP) was kept in excess at 5 to 10 KM. Data were globally fitted to the competitive inhibition model using GraphPad prism 6.01 for Windows software. The values represent the average value ± SD of three independent experiments. Source data are provided as a Source Data file.
(§3) (1 picture or pasted object on this page, not shown here)

mut-HVGH DrIleRS2 = target: T2, mut-HVGH DrIleRS2 (Deinococcus radiodurans, UniProt Q9RUP8, A59H/H61G/L60V); format: biochemical; details: towards Ile
T2 construct: hexa-histidine tag (pET28b(+)) (N); made in house; host or cells: E. coli BL21(DE3)
T2 sequence (Q9RUP8 1-1078 A59H/L60V/H61G): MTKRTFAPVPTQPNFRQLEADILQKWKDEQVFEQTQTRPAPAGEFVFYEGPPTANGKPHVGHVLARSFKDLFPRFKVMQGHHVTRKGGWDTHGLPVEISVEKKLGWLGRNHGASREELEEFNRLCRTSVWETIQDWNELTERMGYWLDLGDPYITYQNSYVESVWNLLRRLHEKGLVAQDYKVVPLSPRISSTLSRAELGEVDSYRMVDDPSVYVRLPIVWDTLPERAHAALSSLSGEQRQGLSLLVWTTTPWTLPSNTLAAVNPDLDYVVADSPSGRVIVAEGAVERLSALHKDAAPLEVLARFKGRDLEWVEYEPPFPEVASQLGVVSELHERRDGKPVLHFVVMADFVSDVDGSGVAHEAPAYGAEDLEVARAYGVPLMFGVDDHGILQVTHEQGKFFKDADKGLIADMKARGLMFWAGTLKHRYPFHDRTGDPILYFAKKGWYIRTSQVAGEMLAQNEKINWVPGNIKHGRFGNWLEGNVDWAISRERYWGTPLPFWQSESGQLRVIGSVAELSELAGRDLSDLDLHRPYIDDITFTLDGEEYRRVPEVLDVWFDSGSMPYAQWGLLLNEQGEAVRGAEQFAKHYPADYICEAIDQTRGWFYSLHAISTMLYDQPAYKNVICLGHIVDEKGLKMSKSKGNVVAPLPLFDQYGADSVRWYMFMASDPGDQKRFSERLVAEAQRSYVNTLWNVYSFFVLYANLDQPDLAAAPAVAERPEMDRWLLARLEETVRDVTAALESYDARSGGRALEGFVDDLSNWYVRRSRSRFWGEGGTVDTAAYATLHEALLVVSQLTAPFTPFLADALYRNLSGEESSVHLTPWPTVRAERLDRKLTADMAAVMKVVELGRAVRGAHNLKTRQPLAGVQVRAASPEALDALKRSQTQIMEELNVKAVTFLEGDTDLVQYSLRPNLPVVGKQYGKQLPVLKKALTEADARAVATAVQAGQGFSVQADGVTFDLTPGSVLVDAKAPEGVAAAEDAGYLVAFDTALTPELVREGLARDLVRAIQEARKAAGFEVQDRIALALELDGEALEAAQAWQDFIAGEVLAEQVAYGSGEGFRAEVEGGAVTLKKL
Procedure: as §1, §2, §3

`C/C(=C\C(=O)OCCCCCCCCC(=O)O)C[C@@H]1OC[C@H](C[C@@H]2O[C@H]2[C@@H](C)[C@H](C)O)[C@@H](O)[C@H]1O` [mupirocin] was tested, and the “FOLD Change of KI, single replicates” value (mut-GVHH TtIleRS2) was 179 and 175 and 180, the “FOLD Change of KI, single replicates” value (mut-HVGH DrIleRS2; WT/MUT DrIleRS2, Repl1-Repl3) was 832 and 931 and 707 and the “Fold change (decrease) in Ki for mupirocin, mupirocin resistance” value (mut-HVGH DrIleRS2; wt-ALHH to mut-HVGH DrIleRS2, activation step, average of three experiments) was 823 fold.
